Measured values reported in US11753371B2 (BATTERJEE MEDICAL COLLEGE, priority 2021, dated 2023).

Amino acid sequences for entries named in this document (tags omitted). Residues count along the entry.
UniProt P00352, whole entry: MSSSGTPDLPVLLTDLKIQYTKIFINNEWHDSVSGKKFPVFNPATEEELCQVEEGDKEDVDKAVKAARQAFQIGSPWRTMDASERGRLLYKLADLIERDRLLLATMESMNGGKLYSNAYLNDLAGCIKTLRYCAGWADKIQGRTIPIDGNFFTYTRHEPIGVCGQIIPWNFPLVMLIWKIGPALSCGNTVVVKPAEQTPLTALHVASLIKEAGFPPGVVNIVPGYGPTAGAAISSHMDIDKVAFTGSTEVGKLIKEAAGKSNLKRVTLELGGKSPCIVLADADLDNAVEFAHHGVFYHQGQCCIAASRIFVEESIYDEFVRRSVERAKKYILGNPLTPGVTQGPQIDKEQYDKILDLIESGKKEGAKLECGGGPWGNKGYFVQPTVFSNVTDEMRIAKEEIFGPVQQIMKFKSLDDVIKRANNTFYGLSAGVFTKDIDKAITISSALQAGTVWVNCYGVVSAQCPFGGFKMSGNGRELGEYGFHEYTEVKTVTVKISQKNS
UniProt P05091, 18-517 limits assumed: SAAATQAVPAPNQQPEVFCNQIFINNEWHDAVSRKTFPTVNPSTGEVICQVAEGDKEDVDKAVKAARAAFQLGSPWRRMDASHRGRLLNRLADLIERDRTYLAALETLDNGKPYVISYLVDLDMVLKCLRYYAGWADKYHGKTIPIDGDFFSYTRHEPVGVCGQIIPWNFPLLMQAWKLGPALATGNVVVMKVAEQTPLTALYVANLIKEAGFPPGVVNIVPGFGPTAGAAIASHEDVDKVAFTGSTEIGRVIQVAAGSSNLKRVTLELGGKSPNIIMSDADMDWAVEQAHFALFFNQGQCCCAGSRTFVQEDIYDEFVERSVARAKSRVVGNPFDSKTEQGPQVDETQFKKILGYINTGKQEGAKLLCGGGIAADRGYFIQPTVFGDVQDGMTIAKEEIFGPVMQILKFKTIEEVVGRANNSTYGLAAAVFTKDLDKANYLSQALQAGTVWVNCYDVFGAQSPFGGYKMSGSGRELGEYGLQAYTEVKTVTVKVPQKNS
UniProt O00519, whole entry: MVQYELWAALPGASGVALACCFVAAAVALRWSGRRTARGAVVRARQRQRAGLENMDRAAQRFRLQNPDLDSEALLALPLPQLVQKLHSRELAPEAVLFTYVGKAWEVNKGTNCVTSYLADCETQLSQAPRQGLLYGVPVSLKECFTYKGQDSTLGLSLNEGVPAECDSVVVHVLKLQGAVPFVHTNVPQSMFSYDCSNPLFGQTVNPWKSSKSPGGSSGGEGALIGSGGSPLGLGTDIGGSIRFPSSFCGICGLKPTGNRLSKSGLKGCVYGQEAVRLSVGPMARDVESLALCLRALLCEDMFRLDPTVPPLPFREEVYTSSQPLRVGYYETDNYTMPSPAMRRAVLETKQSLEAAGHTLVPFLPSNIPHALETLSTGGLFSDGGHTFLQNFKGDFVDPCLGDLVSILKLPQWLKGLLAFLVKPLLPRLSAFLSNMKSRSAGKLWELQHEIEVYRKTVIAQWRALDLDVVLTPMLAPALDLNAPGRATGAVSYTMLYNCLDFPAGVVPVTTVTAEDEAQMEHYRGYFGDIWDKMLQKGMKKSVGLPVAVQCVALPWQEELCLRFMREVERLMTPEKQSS
UniProt Q99685, whole entry: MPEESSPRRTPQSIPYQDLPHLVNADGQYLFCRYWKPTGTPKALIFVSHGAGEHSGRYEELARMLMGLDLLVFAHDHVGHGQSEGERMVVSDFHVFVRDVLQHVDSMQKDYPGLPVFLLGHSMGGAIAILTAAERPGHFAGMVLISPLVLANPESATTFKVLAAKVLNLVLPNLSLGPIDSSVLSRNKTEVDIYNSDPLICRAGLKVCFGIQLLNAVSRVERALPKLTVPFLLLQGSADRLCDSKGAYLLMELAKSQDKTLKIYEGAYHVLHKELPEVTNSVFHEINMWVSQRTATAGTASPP

What was measured:
Format in all cases: biochemical
ALDH1a1 = ALDH1a1 (Homo sapiens (Human), UniProt P00352); assay: ALDH assay (diaphorase/resazurin), ALDH1a1 inhibition
ALDH2 = ALDH2 (Homo sapiens (Human), UniProt P05091); assay: ALDH assay (diaphorase/resazurin), ALDH2 inhibition; conditions: Table I; mean of at least two independent experiments
human FAAH (hFAAH) = human FAAH (hFAAH) (Homo sapiens (Human), UniProt O00519); assay: FAAH enzyme inhibition assay (Cayman screening kit, AMC-arachidonoyl amide); conditions: for IC50 (μM) ± SE (hFAAH): Table II, average of at least two different experiments
human MAGL (hMAGL) = human MAGL (hMAGL) (Homo sapiens (Human), UniProt Q99685); assay: MAGL enzyme inhibition assay (4-nitrophenylacetate); conditions: relative to disulfiram / unsubstituted analogue

## S=C(SSC(=S)N1CCCCC1)N1CCCCC1
ALDH1a1; read-out: IC50 (μM) ± SE (ALDH1a1), Table I, mean of at least two independent experiments
  IC50: 0.06 µM

## S=C(SSC(=S)N(Cc1ccccc1)Cc1ccccc1)N(Cc1ccccc1)Cc1ccccc1
ALDH1a1
  ALDH1a1 inhibitory activity (in words): complete loss of activity
ALDH2
  IC50 (μM) ± SE (ALDH2): NI
Human FAAH (hFAAH)
  FAAH inhibitory activity (in words): complete loss of FAAH inhibitory activity
  IC50 (μM) ± SE (hFAAH): NI

## CCCCN(CCCC)C(=S)SSC(=S)N(CCCC)CCCC
Human MAGL (hMAGL)
  fold decrease in MAGL inhibitory activity: up to 15 fold
Human FAAH (hFAAH)
  FAAH inhibitory activity (in words): no inhibition of FAAH
  IC50 (μM) ± SE (hFAAH): NI
